Results as given in ChEMBL document CHEMBL5233252, “Single and dual target inhibitors based on Bcl-2: Promising anti-tumor agents for cancer therapy” (Eur J Med Chem, 2020).

Chains of the proteins cited; added tags and fusions are not shown.
UniProt Q07817, whole entry: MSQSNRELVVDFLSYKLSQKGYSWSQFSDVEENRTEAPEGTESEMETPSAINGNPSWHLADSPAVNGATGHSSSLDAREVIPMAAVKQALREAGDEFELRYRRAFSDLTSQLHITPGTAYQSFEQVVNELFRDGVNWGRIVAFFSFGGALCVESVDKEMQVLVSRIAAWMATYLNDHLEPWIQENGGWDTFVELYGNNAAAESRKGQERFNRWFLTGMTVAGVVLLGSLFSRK

Target: Bcl-2-like protein 1 (Homo sapiens, UniProt Q07817)
Test: Inhibition of BH3 peptide binding to Bcl-xL (unknown origin)

## Cc1cc2c(C(=O)NC[C@H](C)c3ccccc3)c(O)c(O)cc2c(O)c1-c1c(C)cc2c(C(=O)NC[C@H](C)c3ccccc3)c(O)c(O)cc2c1O [1,1',6,6',7,7'-HEXAHYDROXY-3,3'-DIMETHYL-N5-((R)-2-PHENYLPROPYL)-N5'-((R)-2-PHENYLPROPYL)-2,2'-BINAPHTHYL-5,5'-DICARBOXAMIDE (ATROPISOMERIC MIX)]
  IC50: 310 nM
